The values below come from US20060079453A1, “Hla binding peptides and their uses” (priority 2002, published 2006).

Among the targets are HLA-B*1801 (Homo sapiens, UniProt P01889, A329T/A93T/A95T/C349S/D201E/D54G/D98Y/E176V/E187T/E204Q/E69T/K202T/Q94N/R155S/R180L/S121R/V306I/Y140S/Y195H/Y33H/Y91S); HLA-B*4403 (Homo sapiens, UniProt P01889, A223V/A65T/A93T/A95T/D201E/D98Y/E176V/E187L/E204Q/E69K/G107R/H137Y/K202T/L105A/L119I/N104T/N87E/Q56L/Q94N/R106L/R155S/R180L/S101N/S121R/S35A/S48T/T118I/V36M/W191S/Y140D/Y91S); HLA-B*4002 (Homo sapiens, UniProt P01889, A65T/A93T/A95T/D138N/D201E/D98Y/E176V/E204Q/E69K/K202T/N87E/Q56L/Q94N/R180L/S48T/Y33H/Y91S).

Holding throughout (test): biochemical
Holding throughout (assay type): binding

For `CC(C)C[C@H](NC(=O)[C@H](Cc1ccc(O)cc1)NC(=O)[C@H](CCC(=O)O)NC(=O)[C@H](CCC(=O)O)NC(=O)[C@H](C)N)C(=O)N[C@H](C(=O)N1CCC[C@H]1C(=O)N[C@@H](CCC(N)=O)C(=O)N[C@@H](CCC(N)=O)C(=O)NCC(=O)O)C(C)C`, the IC50 was 723 nM against HLA-B*1801 and 479 nM against HLA-B*4403.

For `CSCC[C@H](NC(=O)[C@H](CCC(=O)O)NC(=O)[C@H](C)N)C(=O)N[C@@H](CC(C)C)C(=O)NCC(=O)N[C@@H](CO)C(=O)N[C@H](C(=O)N[C@H](C(=O)NCC(=O)O)C(C)C)C(C)C`, half-maximal inhibition against HLA-B*4403 (IC50) required 1.6 nM. This counts as single-digit nanomolar.

As to `CC(C)C[C@H](NC(=O)CNC(=O)[C@H](CC(C)C)NC(=O)[C@H](Cc1ccc(O)cc1)NC(=O)[C@H](CCC(=O)O)NC(=O)[C@@H]1CCCN1C(=O)[C@H](CC(N)=O)NC(=O)[C@H](CCC(=O)O)NC(=O)[C@H](C)N)C(=O)O`, the figures for the IC50 against HLA-B*4002, against HLA-B*1801 and against HLA-B*4403 were 271 nM, 17 nM and 2.5 nM, respectively.

As to `CC[C@H](C)[C@H](NC(=O)[C@H](CCC(=O)O)NC(=O)[C@@H]1CCCN1C(=O)[C@H](CCC(=O)O)NC(=O)[C@@H](N)CS)C(=O)N[C@@H](CCC(N)=O)C(=O)N[C@@H](CC(N)=O)C(=O)N[C@H](C(=O)N[C@H](C(=O)N[C@@H](Cc1ccc(O)cc1)C(=O)O)[C@@H](C)O)[C@@H](C)O`, the results for the IC50 against HLA-B*1801 and against HLA-B*4403 were 1460 nM and 14600 nM, respectively.

Take `CC[C@H](C)[C@H](NC(=O)[C@H](C)NC(=O)[C@H](C)NC(=O)[C@H](CCC(N)=O)NC(=O)[C@H](Cc1ccccc1)NC(=O)[C@H](CCC(=O)O)NC(=O)[C@H](CO)NC(=O)[C@H](CCC(=O)O)NC(=O)[C@@H](N)CC(C)C)C(=O)N[C@@H](CO)C(=O)N[C@@H](CCCNC(=N)N)C(=O)N[C@@H](CCCCN)C(=O)N[C@@H](CCSC)C(=O)O`: 14 nM corresponded to half-maximal inhibition against HLA-B*4403 (IC50).

In the case of `CC(C)[C@H](NC(=O)[C@H](CO)NC(=O)CNC(=O)[C@H](CC(N)=O)NC(=O)[C@H](CCC(N)=O)NC(=O)[C@@H]1CCCN1C(=O)[C@H](CCC(N)=O)NC(=O)[C@H](CS)NC(=O)[C@H](CCC(=O)O)NC(=O)[C@@H]1CCCN1)C(=O)O`, the IC50 at HLA-B*1801 worked out at 7960 nM; against HLA-B*4403, 472 nM.

Consider `CC[C@H](C)[C@H](NC(=O)[C@H](CCC(=O)O)NC(=O)[C@@H]1CCCN1)C(=O)N[C@@H](CCC(N)=O)C(=O)N[C@@H](CC(N)=O)C(=O)N[C@H](C(=O)N[C@H](C(=O)N[C@@H](Cc1ccc(O)cc1)C(=O)N[C@@H](CC(C)C)C(=O)N[C@@H](Cc1c[nH]c2ccccc12)C(=O)O)[C@@H](C)O)[C@@H](C)O`, for which the IC50 on HLA-B*4002 was found to be 9420 nM; against HLA-B*1801 it was 819 nM; on HLA-B*4403, 6170 nM.

In the case of `CC(C)C[C@H](NC(=O)[C@H](Cc1ccc(O)cc1)NC(=O)[C@H](CCC(=O)O)NC(=O)[C@@H]1CCCN1)C(=O)N[C@H](C(=O)N1CCC[C@H]1C(=O)N[C@@H](CCC(N)=O)C(=O)NCC(=O)NCC(=O)N[C@@H](C)C(=O)N[C@@H](C)C(=O)O)[C@@H](C)O`, the values for the half-maximal inhibitory concentration (IC50) against HLA-B*4002 and on HLA-B*4403 were 200 nM and 354 nM, respectively.

On to `CC(C)C[C@H](NC(=O)[C@H](Cc1ccc(O)cc1)NC(=O)[C@H](CCC(=O)O)NC(=O)[C@@H](N)CO)C(=O)N[C@@H](CCC(N)=O)C(=O)N[C@@H](CC(C)C)C(=O)N[C@H](C(=O)N[C@@H](Cc1ccccc1)C(=O)NCC(=O)O)C(C)C`, for which the half-maximal inhibitory concentration (IC50) was 421 nM at HLA-B*4002, 18 nM at HLA-B*1801 and 19 nM at HLA-B*4403.

Take `CC(C)[C@H](N)C(=O)N[C@@H](CCC(=O)O)C(=O)N[C@@H](CC(=O)O)C(=O)N[C@@H](CCCCN)C(=O)N[C@@H](CC(=O)O)C(=O)N[C@@H](C)C(=O)N[C@H](C(=O)N[C@@H](C)C(=O)N[C@@H](Cc1ccccc1)C(=O)O)C(C)C`: the figures for the IC50 against HLA-B*4002 and against HLA-B*4403 were 1580 nM and 1440 nM, respectively.

Take `CC[C@H](C)[C@H](NC(=O)[C@H](Cc1c[nH]cn1)NC(=O)[C@@H]1CCCN1C(=O)[C@H](CCC(=O)O)NC(=O)CN)C(=O)N[C@@H](CO)C(=O)N[C@@H](Cc1ccc(O)cc1)C(=O)O` [GEPHISY]: the IC50 on HLA-B*4002 was 6720 nM; against HLA-B*1801, 8830 nM; at HLA-B*4403, 272 nM.
